# In publication PMC6372279 (eLife, 2019):
# Chains of the proteins cited; added tags and fusions are not shown. Residues count along the entry.
# UniProt P06213, 28-758 limits assumed: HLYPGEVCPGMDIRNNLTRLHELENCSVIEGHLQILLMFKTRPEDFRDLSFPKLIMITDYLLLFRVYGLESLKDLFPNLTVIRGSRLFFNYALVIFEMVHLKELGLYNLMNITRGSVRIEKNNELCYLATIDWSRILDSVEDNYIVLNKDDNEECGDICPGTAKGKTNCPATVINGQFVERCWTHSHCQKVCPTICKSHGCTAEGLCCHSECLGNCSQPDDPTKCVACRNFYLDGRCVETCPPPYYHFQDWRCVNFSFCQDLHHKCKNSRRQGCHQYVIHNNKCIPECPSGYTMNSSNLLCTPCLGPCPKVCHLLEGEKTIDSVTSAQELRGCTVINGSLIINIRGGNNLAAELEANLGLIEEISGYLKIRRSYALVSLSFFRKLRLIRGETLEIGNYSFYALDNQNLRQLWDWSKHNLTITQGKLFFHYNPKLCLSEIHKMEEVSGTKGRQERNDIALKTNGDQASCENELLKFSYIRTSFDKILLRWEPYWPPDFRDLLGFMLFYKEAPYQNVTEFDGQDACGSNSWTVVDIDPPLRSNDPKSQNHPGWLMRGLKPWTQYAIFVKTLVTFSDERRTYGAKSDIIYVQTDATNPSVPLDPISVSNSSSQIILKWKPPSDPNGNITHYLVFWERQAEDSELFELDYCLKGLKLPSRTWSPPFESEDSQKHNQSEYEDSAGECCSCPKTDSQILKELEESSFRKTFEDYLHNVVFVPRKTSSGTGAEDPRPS
# UniProt P06213, 763-1382 partner limits assumed: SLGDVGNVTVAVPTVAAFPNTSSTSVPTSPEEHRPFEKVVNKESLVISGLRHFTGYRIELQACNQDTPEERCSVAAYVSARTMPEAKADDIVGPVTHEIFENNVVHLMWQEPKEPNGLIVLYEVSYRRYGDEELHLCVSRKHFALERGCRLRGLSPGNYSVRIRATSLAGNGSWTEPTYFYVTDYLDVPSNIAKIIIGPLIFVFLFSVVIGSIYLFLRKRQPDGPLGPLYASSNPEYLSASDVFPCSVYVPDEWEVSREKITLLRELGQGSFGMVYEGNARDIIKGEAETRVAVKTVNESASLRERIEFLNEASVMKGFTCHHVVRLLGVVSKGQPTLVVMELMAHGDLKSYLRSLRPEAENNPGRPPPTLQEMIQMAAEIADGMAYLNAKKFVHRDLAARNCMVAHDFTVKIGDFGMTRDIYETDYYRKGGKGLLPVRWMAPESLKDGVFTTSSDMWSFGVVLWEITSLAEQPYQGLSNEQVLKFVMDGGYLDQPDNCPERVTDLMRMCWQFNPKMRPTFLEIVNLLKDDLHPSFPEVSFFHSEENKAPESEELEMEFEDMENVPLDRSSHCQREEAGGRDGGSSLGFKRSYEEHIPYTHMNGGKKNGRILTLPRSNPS
# Biological target: human insulin receptor isoform B (hIR-B) (Homo sapiens, UniProt P06213)
# Experiment: biochemical
# Assay type: binding
smiles,measurement,value
CC[C@H](C)[C@@H]1NC(=O)[C@H](CC(C(=O)O)C(=O)O)NC(=O)[C@H](CO)NC(=O)CNC(=O)[C@@H](NC(=O)[C@H](CCCNC(=N)N)NC(=O)[C@H](Cc2c[nH]cn2)NC(=O)[C@H](CCCCN)NC(=O)[C@@H]2C[C@@H](O)CN2C(=O)[C@@H](NC(=O)[C@H](CC(=O)O)NC(=O)[C@H](Cc2ccccc2)NC(=O)[C@@H](N)[C@@H](C)O)[C@@H](C)O)CSSC[C@@H]2NC(=O)[C@@H](NC(=O)[C@H](Cc3c[nH]cn3)NC(=O)[C@H](CC(C(=O)O)C(=O)O)NC(=O)[C@@H](NC(=O)[C@@H](NC(=O)CN)C(C)C)C(C)C)CSSC[C@H](NC(=O)[C@@H]3CCCN3C(=O)[C@H](CCCNC(=N)N)NC(=O)[C@H](Cc3c[nH]cn3)NC2=O)C(=O)N[C@@H](CO)C(=O)N[C@@H](CC(N)=O)C(=O)N[C@@H](C)C(=O)N[C@@H](CCC(=O)O)C(=O)N[C@@H](Cc2ccccc2)C(=O)N[C@@H](CCCCN)C(=O)N[C@@H](CCCCN)C(=O)N[C@@H](Cc2ccc(O)cc2)C(=O)N[C@H](C(N)=O)CSSC[C@@H](C(=O)N[C@@H](Cc2ccc(O)cc2)C(=O)N[C@@H](CCCNC(=N)N)C(=O)O)NC(=O)[C@H](CC(C)C)NC(=O)[C@H](CC(=O)O)NC(=O)[C@H](CCSC)NC(=O)[C@H](Cc2ccc(O)cc2)NC(=O)[C@H](CO)NC(=O)[C@H](CC(N)=O)NC(=O)[C@H]([C@@H](C)O)NC1=O [Con-Ins G1],IC50,11 nM
